The values below are quoted from earlier work in patent publication US20160209428A1, “DIAGNOSTIC AND PREDICTIVE METABOLITE PATTERNS FOR DISORDERS AFFECTING THE BRAIN AND NERVOUS SYSTEM” (THE REGENTS OF THE UNIVERSITY OF CALIFORNIA, priority 2013, published 2016).

The chains behind the UniProt entries cited, without tags or fusion partners.
UniProt P47746, whole entry: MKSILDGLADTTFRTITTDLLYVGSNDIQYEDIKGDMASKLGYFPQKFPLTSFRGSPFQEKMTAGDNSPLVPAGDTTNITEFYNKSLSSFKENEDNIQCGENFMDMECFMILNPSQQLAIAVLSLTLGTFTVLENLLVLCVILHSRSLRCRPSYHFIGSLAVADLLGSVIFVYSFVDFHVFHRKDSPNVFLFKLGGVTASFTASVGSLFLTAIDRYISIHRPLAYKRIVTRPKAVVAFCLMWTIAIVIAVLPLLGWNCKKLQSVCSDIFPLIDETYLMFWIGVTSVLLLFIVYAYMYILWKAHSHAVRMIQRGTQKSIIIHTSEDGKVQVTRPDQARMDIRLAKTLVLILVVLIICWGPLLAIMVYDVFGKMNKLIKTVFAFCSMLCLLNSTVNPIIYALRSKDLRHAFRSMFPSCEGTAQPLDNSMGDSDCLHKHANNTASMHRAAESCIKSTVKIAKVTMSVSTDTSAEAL

This data set has as its target CB1R (Mus musculus, UniProt P47746). As to conditions: CB1R antagonist; cited from earlier work.

`Cc1c(C(=O)NN2CCCCC2)nn(-c2ccc(Cl)cc2Cl)c1-c1ccc(Cl)cc1` [rimonabant]: the “symptoms in the Fragile X model” value was “improve several symptoms”.
